This is a sample that favours compounds with a hit; in the whole collection about 0.43% have one here.
GIV-Gai inh: inhibitors of GIV peptide binding to Galpha-i3, primary screen, biochemical, fluorescence polarization, FITC-GIV GBA peptide, rat Galphai3 | 90 min; stronger effect = lower value; scaled: aluminum fluoride 0%, vehicle 100% | AID 1224905, 2016 | 210,000 compounds, 0.42% hits | percent of control (FP), % (concentration not given with the values) | Guanine nucleotide-binding protein G(i) subunit alpha-3 (Rattus norvegicus), P08753;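 active = replicate mean at 85% of control or lower, very high polarization wells dropped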;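 note: wells of about 15 µL received 100 nL stock; the first replicate is given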
HCMV NEC inh: cytomegalovirus nuclear egress complex inhibition; HTRF UL50-UL53 interaction, normalized percent inhibition; inhibition, % (no concentration beside the values); AID 1918969; 190,000 tested, 0.15% active; in the data active means inhibition above about 27%, passing the limit was not always enough
GIV Gai FP conf: GIV-Galpha-i3 inhibition, FP confirmation; shares compounds with GIV-Gai inh; FITC-GIV peptide binding to Galphai3, fluorescence polarization; stronger effect = lower value; fluorescence polarization, mP at 100 µM; 580 tested, 38% active; AID 1259350;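 active means inhibition score of 15 or more, meaning 100 minus mean polarization as percent of control over three replicates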
GIV Gai AS conf: GIV-Galpha-i3 inhibition, AlphaScreen confirmation. shares compounds with GIV-Gai inh. AlphaScreen Galphai3-GIV binding, purified proteins, 90 min; stronger effect = lower value. AlphaScreen counts at 100 µM. 580 tested, 39% active. AID 1259351;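 active means inhibition score at or above a set limit, where the score is 100 minus the three-replicate mean percent of control signal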
An asterisk follows results filed as active; nt = no result given.

Chains of the proteins cited; added tags and fusions are not shown.
Guanine nucleotide-binding protein G(i) subunit alpha-3 (Rattus norvegicus), P08753, UniProt P08753, whole entry, looked up: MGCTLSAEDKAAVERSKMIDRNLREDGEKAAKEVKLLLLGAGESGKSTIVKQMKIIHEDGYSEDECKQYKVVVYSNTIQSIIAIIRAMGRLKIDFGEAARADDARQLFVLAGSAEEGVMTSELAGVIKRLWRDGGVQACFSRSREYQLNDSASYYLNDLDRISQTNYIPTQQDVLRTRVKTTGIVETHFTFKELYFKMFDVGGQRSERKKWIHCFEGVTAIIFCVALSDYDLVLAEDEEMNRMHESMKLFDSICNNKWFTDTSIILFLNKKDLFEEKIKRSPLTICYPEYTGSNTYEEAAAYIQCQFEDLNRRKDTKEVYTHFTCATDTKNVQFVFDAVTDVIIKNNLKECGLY

SMILES	GIV-Gai inh	HCMV NEC inh	GIV Gai FP conf	GIV Gai AS conf
CCCSc1nnc2c(n1)OC(c1c(OC)ccc3ccccc13)Nc1ccccc1-2 (configuration not stated)	112	-31	nt	nt
S=C1NC(c2ccc(Br)cc2)=CC(c2ccccc2)N1 (configuration not stated)	105	nt	nt	nt
O=C(Cn1c2c(c(-c3ccccc3Cl)cc1=O)CCC2)NC1CCCC1	100	-3	nt	nt
CCOC(=O)c1c(C)n(C)c2ccc(OCCN(CC)CC)cc12	100	-32	nt	nt
O=Cc1c(O)c2ccccc2c2ccccc12	44*	-27	38*	22285
O=c1oc2ccccc2c(O)c1C=Nc1ccccc1	107	-14	nt	nt
COC(=O)NC(C)CNc1nccc(-c2cn(C(C)C)nc2-c2cc(Cl)cc(NS(C)(=O)=O)c2F)n1 (configuration not stated)	nt	0	nt	nt
CC1CCN(C(=O)c2noc3c2CSc2ccccc2-3)CC1	104	5	nt	nt
CC(=O)Nc1ccc2c(c1)C1C=CCC1C(C(=O)O)N2 (configuration not stated)	188	-58	nt	nt
O=C(O)C1Nc2c(I)cccc2C2C=CCC12 (configuration not stated)	43*	14	36*	1672*
Cc1nnc2ccc(NCCC3=CCCCC3)nn12	105	nt	nt	nt
Clc1ccc2c(c1)NNc1nncn1-2	101	-294	nt	nt
O=C(O)CSc1nnc2n1-c1ccc(Cl)cc1NN2	47*	-265	39*	6321*
CCSc1ccc(NC(=O)Cc2ccccc2)cc1	100	-3	nt	nt
COc1ccc(C(=O)NC(c2ccc(C)cc2)c2cc(Cl)c3cccnc3c2O)cc1 (configuration not stated)	80*	nt	61*	89449
COc1ccc(C(=O)NC(c2ccccc2Cl)c2cc(Cl)c3cccnc3c2O)cc1 (configuration not stated)	92	nt	nt	nt
CCOC(=O)C1=C(C)OC2(O)c3ccccc3C(=O)C12O (configuration not stated)	80*	-4	64	48826
CCOCCOC(=O)C1=C(C)NC2(O)c3ccccc3C(=O)C12O (configuration not stated)	104	nt	nt	nt
CCCNC(=O)Cn1nc(C)n2c(cc3ccccc32)c1=O	111	4	nt	nt
CN1CCN(C2=NC(C(=O)Nc3ccccc3)CC(=O)N2)CC1 (configuration not stated)	109	10	nt	nt
O=C1CC(C(=O)Nc2ccccc2)N=C(N2CCc3ccccc3C2)N1 (configuration not stated)	81*	1	75	33162
CN(C)CC(C)(C)CN(CCC#N)S(=O)(=O)c1cccc2nsnc12	103	-92	nt	nt
Cc1ccc(C)n1-c1nnc(N2CCCC(C(=O)O)C2)s1 (configuration not stated)	87	nt	59	7556*
Cc1cccc(NC(=O)C2CCCN(c3nnc(-n4c(C)ccc4C)s3)C2)c1C (configuration not stated)	103	-10	nt	nt
COc1ccc(C2C3=C(CC(C)(C)CC3=O)Nc3onc(C)c32)cc1 (configuration not stated)	103	-26	nt	nt

The results go on.
SMILES	GIV-Gai inh	HCMV NEC inh	GIV Gai FP conf	GIV Gai AS conf
COc1ccc(C=C2C(=O)NC(=O)NC2=O)cc1Oc1ccc([N+](=O)[O-])cc1[N+](=O)[O-]	87	51*	60	15324*
COc1cc(/C=C2\SC(=O)N(C)C2=O)ccc1Oc1ccc([N+](=O)[O-])cc1[N+](=O)[O-]	96	-20	nt	nt
C=CCNC(=O)C1=Cc2cc(Br)ccc2OC=C1	107	-1	nt	nt
CCOC(=O)C1CCN(C(=O)CSc2nnc(-c3ccoc3C)o2)CC1	102	-15	nt	nt
NC(=O)c1c(NC(=O)COC(=O)c2ccc(Br)o2)sc2c1CCC2	nt	-29	nt	nt
O=C(O)CC1=C(c2cccs2)CCC1=O	104	-84	nt	nt
Cc1nc(N2CCCC2)nc2oc(-c3ccccc3)nc12	115	-31	nt	nt
Cc1nc(N2CCN(c3ccccn3)CC2)nc2oc(-c3ccccc3)nc12	93	-16	98	26416
CS(=O)(=O)N1CCc2cc(C(=O)N3CCCc4ccccc43)ccc21	104	-19	nt	nt
Cc1ccc(/C=C(\C#N)c2cccs2)cc1	106	-18	nt	nt
COc1ccc(NC(=O)CSc2nnc3c4sc(N5CCCC5)nc4ncn23)cc1	109	nt	nt	nt
O=C(CSc1nnc2c3sc(N4CCCC4)nc3ncn12)Nc1ccccc1	81*	nt	81	31906
COc1ccccc1/C=C1\C(=O)N(c2ccc(C)cc2)C2=C1C(c1ccccc1)N(c1ccc(C)cc1)C2=O (configuration not stated)	100	nt	nt	nt
Cc1ccc(N2C(=O)/C(=C\c3ccc(C(C)C)cc3)C3=C2C(=O)N(c2ccc(C)cc2)C3c2ccccc2)cc1 (configuration not stated)	85*	nt	70	46540
N#CC(C#N)=C(/C=C/c1cccs1)C1CC1	nt	-8	nt	nt
C=CCNC(=O)C1CCCN(S(=O)(=O)CCC)C1 (configuration not stated)	84*	1	64	51209
CCCS(=O)(=O)N1CCCC(C(=O)NC(C)C)C1 (configuration not stated)	107	-31	nt	nt
Cc1ccc(-n2ncc3c(N(C)C)ncnc32)cc1	108	-2	nt	nt
Cc1cc(C)cc(C(=O)Nc2ccc(-c3nc4ncccc4o3)cc2)c1	82*	-39	81	27053
Cc1ccc(OCC(=O)Nc2ccc(-c3nc4ccccc4o3)cc2)c(C)c1	93	11	74	32376
Cc1ccc(C(C)C)c(OCC(=O)Nc2cccc(-c3nc4ncccc4o3)c2)c1	108	-68	nt	nt
Cc1ccc(C(C)C)c(OCC(=O)Nc2cc(-c3nc4ncccc4o3)ccc2C)c1	88	nt	62	43747
Cc1cc(C)c2oc(-c3ccc(NC(=O)COc4ccccc4C)cc3)nc2c1	105	-56	nt	nt
O=C(Nc1ccc(-c2nc3ncccc3o2)cc1)c1ccccc1	107	nt	nt	nt
COc1ccc(CC(=O)N2N=C(C)CC2(O)c2ccccc2)cc1OC (configuration not stated)	105	-14	nt	nt

Other compounds:
SMILES	GIV-Gai inh	HCMV NEC inh	GIV Gai FP conf	GIV Gai AS conf
O=C(c1cc2c(Cl)nc3ccccc3c2s1)N1CCCC1	99	nt	nt	nt
O=C(COc1ccc(F)cc1)Nc1nnc(C2CC(=O)N(c3ccc(F)cc3)C2)o1 (configuration not stated)	105	nt	nt	nt
COc1ccc(-c2nnc(SC(C(=O)NC(N)=O)c3ccccc3)n2CC2CCCO2)cc1 (configuration not stated)	nt	-16	nt	nt
Clc1ccc(-c2noc(-c3sccc3Cl)n2)cc1	101	-16	nt	nt
O=c1c(=Nc2ccccc2O)c(=O)c2ccccc12	nt	37	nt	nt
O=c1c(=N\O)/c(=N/O)c(=O)c2ccccc12	59*	97*	64*	4729*
Cc1ccc(NC(=O)NC(C)c2c(-n3cccc3)sc(C)c2C)cc1F (configuration not stated)	103	-29	nt	nt
Cc1cccc(NC(=O)NC(C)c2c(-n3cccc3)sc(C)c2C)c1C (configuration not stated)	89	nt	71	49525
CCOC(=O)C(C)(C)Sc1nc2c(cnn2-c2ccc(C)c(C)c2)c(=O)[nH]1	nt	3	nt	nt
O=S(=O)(c1ccc2c(c1)OCCO2)N1CCN(C(=S)Nc2cccc(Cl)c2)CC1	nt	-7	nt	nt

6 entries from above, set out differently.
Value order – GIV-Gai inh	HCMV NEC inh	GIV Gai FP conf	GIV Gai AS conf
> CCCS(=O)(=O)N1CCCC(C(=O)NC(C)C)C1 (configuration not stated)
→ 107	-31	nt	nt
> O=c1c(=Nc2ccccc2O)c(=O)c2ccccc12
→ nt	37	nt	nt
> CCOC(=O)c1c(C)n(C)c2ccc(OCCN(CC)CC)cc12
→ 100	-32	nt	nt
> C=CCNC(=O)C1CCCN(S(=O)(=O)CCC)C1 (configuration not stated)
→ 84*	1	64	51209
> COc1ccc(C2C3=C(CC(C)(C)CC3=O)Nc3onc(C)c32)cc1 (configuration not stated)
→ 103	-26	nt	nt
> O=C(O)C1Nc2c(I)cccc2C2C=CCC12 (configuration not stated)
→ 43*	14	36*	1672*

Bioassay records deposited in PubChem BioAssay by ICCB-Longwood Screening Facility, Harvard Medical School.
